The text below walks through data of patent US5198426A.

Sequences of proteins named here, by UniProt entry; tags and fusion partners are left off. Residues count along the entry.
UniProt P00797, 67-406 limits assumed: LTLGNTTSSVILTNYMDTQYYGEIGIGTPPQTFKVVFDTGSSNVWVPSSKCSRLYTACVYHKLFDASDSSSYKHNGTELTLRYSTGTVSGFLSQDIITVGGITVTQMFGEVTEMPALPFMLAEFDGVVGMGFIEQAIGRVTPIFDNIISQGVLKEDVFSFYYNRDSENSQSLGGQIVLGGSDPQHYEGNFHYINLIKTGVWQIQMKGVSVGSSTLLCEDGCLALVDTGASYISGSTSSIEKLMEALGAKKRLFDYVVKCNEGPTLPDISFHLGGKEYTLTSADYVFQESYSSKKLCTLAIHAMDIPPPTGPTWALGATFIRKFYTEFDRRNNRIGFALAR

pIC50: −log10 of the molar value.

As a reminder, the pIC50 is the negative decadic logarithm of the IC50, by convention in mol/L. Read a high pIC50 as a small IC50.

The target of the first assay is renin (Homo sapiens, UniProt P00797). Nature of the assay: in vitro renin inhibitory activity, radioimmunoassay for angiotensin I. Conditions: renin incubated for two hours at 37° with substrate angiotensinogen; angiotensin I measured by radioimmunoassay.
Molecule `C=CC(=O)CC(O)C(CC1CCCCC1)NC(=O)C(NC(=O)[C@H](Cc1ccccc1)NS(=O)(=O)N1CCOCC1)C(=O)OC` (stereo partly drawn) had a pIC50 of 7.44. Still for that read-out and setting: with `CCC(O)CC(O)C(CC(C)C)NC(=O)[C@H](Cc1c[nH]cn1)NC(=O)[C@H](Cc1ccccc1)NS(=O)(=O)N1CCOCC1` (stereo partly drawn) the figure was 7.74; with `C=CC(O)CC(O)C(CC1CCCCC1)NC(=O)C(NC(=O)[C@H](Cc1ccccc1)NS(=O)(=O)N1CCOCC1)C(=O)OC` (single isomer, unassigned), 8.68; with `C=CC[C@H](NC(=O)[C@H](Cc1ccccc1)NS(=O)(=O)N1CCN(C(=O)OC(C)(C)C)CC1)C(=O)NC(CC1CCCCC1)C(O)CC(O)CC` (single isomer, unassigned), 9.33. Still for that read-out and setting: with `C=CC[C@H](NC(=O)[C@H](Cc1ccccc1)NS(=O)(=O)N1CCNCC1)C(=O)NC(CC1CCCCC1)C(O)CC(O)CC` (single isomer, unassigned) the figure was 8.87. The molecule `C=CC[C@H](NC(=O)[C@H](Cc1ccccc1)NS(=O)(=O)N1CCOCC1)C(=O)NC(CC1CCCCC1)C(O)CC(O)C(C)C` (single isomer, unassigned) showed a negative-log IC50 (pIC50) of 9.59. Regarding `CCN(C)CCC(O)CC(O)C(CC1CCCCC1)NC(=O)[C@H](Cc1c[nH]cn1)NC(=O)[C@H](Cc1ccccc1)NS(=O)(=O)N1CCOCC1` (single isomer, unassigned) [drawing 40 (Fast isomer)], the negative logarithm of the IC50 (pIC50) is 6.55. This pIC50 is 3.04 log units lower than that of the molecule before.

The molecule `CCN(C)CCC(O)CC(O)C(CC1CCCCC1)NC(=O)[C@H](Cc1c[nH]cn1)NC(=O)[C@H](Cc1ccccc1)NS(=O)(=O)N1CCOCC1` (single isomer, unassigned) [drawing 40 (Slow isomer)] had a pIC50 of 6.66. Same read-out and setting: under `CCC(O)CC(O)C(CC1CCCCC1)NC(=O)CNC(=O)[C@H](Cc1ccccc1)NS(=O)(=O)N1CCOCC1` (single isomer, unassigned) [drawing 46 (Fast isomer)] stands < 7.00; under `CCC(O)CC(O)C(CC1CCCCC1)NC(=O)CNC(=O)[C@H](Cc1ccccc1)NS(=O)(=O)N1CCOCC1` (single isomer, unassigned) [drawing 46 (Slow isomer)], 7.36; under `CCC(O)CC(O)C(CC1CCCCC1)NC(=O)C(NC(=O)[C@H](Cc1ccccc1)NS(=O)(=O)N1CCOCC1)C(=O)OC` (single isomer, unassigned) [drawing 49 (Fast isomer)], 8.24. The same measure, in the same setting: under `CCC(O)CC(O)C(CC1CCCCC1)NC(=O)C(NC(=O)[C@H](Cc1ccccc1)NS(=O)(=O)N1CCOCC1)C(=O)OC` (single isomer, unassigned) [drawing 49 (Slow isomer)] stands 9.12.

Turning to `COC(=O)C(NC(=O)[C@H](Cc1ccccc1)NS(=O)(=O)N1CCOCC1)C(=O)NC(CC1CCCCC1)C(O)CC(O)CCSC(C)C` (single isomer, unassigned) [drawing 51 (Fast isomer)], the negative logarithm of the IC50 (pIC50) was 7.77. Compared with the last molecule, the pIC50 is 1.35 log units lower. Still for that read-out and setting: with `COC(=O)C(NC(=O)[C@H](Cc1ccccc1)NS(=O)(=O)N1CCOCC1)C(=O)NC(CC1CCCCC1)C(O)CC(O)CCSC(C)C` (single isomer, unassigned) [drawing 51 (Slow isomer)] the figure was 8.31.

Still in this assay, the particulars now being: renin incubated for two hours at 37° with substrate angiotensinogen; angiotensin I measured by radioimmunoassay; tested form: iodide.
For `CC[N+](C)(C)CCC(O)CC(O)C(CC1CCCCC1)NC(=O)[C@H](Cc1c[nH]cn1)NC(=O)[C@H](Cc1ccccc1)NS(=O)(=O)N1CCOCC1` (stereo partly drawn), the negative-log IC50 (pIC50) is 6.30.
